Results: patent US4336192A, “5,6-Dihydro-11-alkylene-morphanthridin-6-ones” (BASF Aktiengesellschaft, priority 1979, dated 1982)

System: female NMRI mice
Assay: Anti-cholinergic effect: protection against death from Physostigmin
Conditions: mouse, in vivo
Protocol: 3. Anti-cholinergic effect
A lethal dose (0.825 mg/kg) of Physostigmin is administered subcutaneously to groups of 10 female NMRI mice. The test substances are administered orally 30 minutes before administering the Physostigmin.
The ED 50% is the dose of substance which protects 50% of the animals against death from Physostigmin.

In the case of `CN1CCN(C2=Nc3ccccc3C(=CC#N)c3ccccc32)CC1` (mixture of isomers) [Example 17 (cis-trans mixture), cis,trans-11-cyanomethylene-6-(4-methyl-piperazin-1-yl)-morphanthridine], the “Anti-cholinergic effect R.A. (relative activity)” value is reported as 2.25.
